Assay [1] deals with T1, activated human blood coagulation factor X (Homo sapiens, UniProt P00742).
T1 construct: purchased Enzyme Research Co
Nature of the assay: Determination of activity of inhibiting the activated blood-coagulation factor X (chromogenic substrate, initial rate). The settings on record: tris hydrochloride buffer pH 8.4, room temperature, absorbance 405 nm. Type of assay: biochemical. On the procedure: Determination of Activity of Inhibiting the Activated Blood-coagulation Factor X
130 μl of 100 mM tris hydrochloride buffer adjusted to pH 8.4 was added to 10 μl of an aqueous solution of a compound to be tested. Then 10 μl of a 0.5 unit/ml solution of activated human blood coagulation factor X (a product of Enzyme Research Co.) in tris hydrochloride of pH 8.4 was added to the resultant mixture. After the incubation at room temperature for 10 minutes, 50 μl of a solution of N-benzoyl-L-isoleucyl-L-glutamyl-glycyl-L-arginyl-P-nitroanilide hydrochloride (a product of Peptide Institute, Inc.) adjusted to 0.8 mM with tris hydrochloride (pH 8.4) was added thereto. The absorbance was determined and then the initial reaction rate was determined. A control was prepared in the same manner as that described above except that the solution of the compound to be tested was replaced with 10 μl of tris hydrochloride buffer adjusted to pH 8.4. The absorbance was determined with MICROPLATE READER Model 3550-UV (a product of BIO RAD) at a wave length of 405 nm at intervals of 15 seconds for 16 minutes. […]

For another assay, the target named is T2, human thrombin (Homo sapiens, UniProt P00734).
T2 construct: solution of human thrombin (a product of SIGMA Co.); purchased SIGMA Co
As to the kind of experiment: Determination of thrombin-inhibiting activity (chromogenic substrate S-2238, initial rate). Type of assay: biochemical. The settings on record: tris hydrochloride buffer pH 8.4, room temperature, absorbance 405 nm. The method, then:
Determination of Thrombin-inhibiting Activity
130 μl of 100 mM tris hydrochloride buffer adjusted to pH 8.4 was added to 10 μl of an aqueous solution of a test compound. Then 10 μl of a solution of human thrombin (a product of SIGMA Co.) adjusted to 2 units/ml with tris hydrochloride buffer of pH 8.4 was added to the resultant mixture. After the incubation at room temperature for 10 minutes, 50 μl of a solution of D-phenylalanyl-L-pipecolyl-L-arginyl-P-nitroanilide dihydrochloride (S-2238; a product of Daiichi Kagaku Yakuhin Co.) adjusted to 0.4 mM with tris hydrochloride buffer of pH 8.4 was added thereto. The absorbance was determined and then the initial reaction rate was determined. A control was prepared in the same manner as that described above except that the solution of the compound to be tested was replaced with 10 μl of tris hydrochloride buffer adjusted to pH 8.4. The absorbance was determined with MICROPLATE READER Model 3550-UV (a product of […]) at a wave length of 405 nm at intervals of 15 seconds for 16 minutes. The negative logarithm (pIC50) of a concentration of the test compound which inhibits 50% of the activity (initial rate) of the thrombin in the absence of the test compound was determined, and employed as the index of the activity of inhibiting thrombin.

In the case of “2-[4-amidino-2-[2-[(1-(1-pyridine-4-yl)piperidine-4-carbonyl) amino]ethoxy]phenyl]ethanesulfonic acid bistrifluoroacetate [Compd. of Ex. 42]”, in assay [1], the “Activity of inhibiting activated blood coagulation factor X (pIC50)” value is recorded as 7.2. The “Thrombin-inhibiting activity (pIC50)” value on human thrombin is given as under 3.3.

(Values after patent publication US6812231B2, “Benzamidine derivative” (Ajinomoto Co., Inc., priority 1998, dated 2004).)
